Some targets named below: human α1A-AR (Homo sapiens, UniProt P35348); human α1B-AR (Homo sapiens, UniProt P35368); human α1D-AR (Homo sapiens, UniProt P25100).
The target of a further experiment is human α2A-AR (Homo sapiens, UniProt P08913). Kind of experiment: Radioligand binding ([3H]rauwolscine) in CHO cells expressing human α2A-AR.

Amino acid sequences for entries named in this document (tags omitted).
UniProt P35348, whole entry: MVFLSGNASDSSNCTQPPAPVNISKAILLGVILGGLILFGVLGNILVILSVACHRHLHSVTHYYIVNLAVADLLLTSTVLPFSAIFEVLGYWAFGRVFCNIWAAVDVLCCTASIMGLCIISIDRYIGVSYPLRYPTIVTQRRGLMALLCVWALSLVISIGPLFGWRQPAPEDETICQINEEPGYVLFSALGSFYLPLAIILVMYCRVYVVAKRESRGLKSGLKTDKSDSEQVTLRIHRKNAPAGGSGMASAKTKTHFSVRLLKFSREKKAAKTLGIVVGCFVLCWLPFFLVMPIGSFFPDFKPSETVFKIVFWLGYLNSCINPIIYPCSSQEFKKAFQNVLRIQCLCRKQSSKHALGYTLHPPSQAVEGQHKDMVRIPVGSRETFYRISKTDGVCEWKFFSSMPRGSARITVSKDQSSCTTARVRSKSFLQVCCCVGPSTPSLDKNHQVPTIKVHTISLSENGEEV
UniProt P35368, whole entry: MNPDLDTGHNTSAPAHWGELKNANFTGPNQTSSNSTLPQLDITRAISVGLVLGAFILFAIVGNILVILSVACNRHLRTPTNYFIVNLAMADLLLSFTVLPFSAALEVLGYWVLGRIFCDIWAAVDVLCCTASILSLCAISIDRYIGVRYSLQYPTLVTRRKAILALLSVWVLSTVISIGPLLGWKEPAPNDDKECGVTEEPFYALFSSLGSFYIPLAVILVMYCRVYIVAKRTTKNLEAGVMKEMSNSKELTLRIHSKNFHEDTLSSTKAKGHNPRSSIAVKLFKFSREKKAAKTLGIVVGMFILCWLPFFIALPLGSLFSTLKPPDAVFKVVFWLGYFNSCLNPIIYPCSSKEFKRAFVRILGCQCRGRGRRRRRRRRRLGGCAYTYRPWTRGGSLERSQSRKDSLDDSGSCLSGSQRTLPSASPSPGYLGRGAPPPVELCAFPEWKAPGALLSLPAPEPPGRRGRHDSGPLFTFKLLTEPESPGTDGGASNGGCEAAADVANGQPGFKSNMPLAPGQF
UniProt P25100, whole entry: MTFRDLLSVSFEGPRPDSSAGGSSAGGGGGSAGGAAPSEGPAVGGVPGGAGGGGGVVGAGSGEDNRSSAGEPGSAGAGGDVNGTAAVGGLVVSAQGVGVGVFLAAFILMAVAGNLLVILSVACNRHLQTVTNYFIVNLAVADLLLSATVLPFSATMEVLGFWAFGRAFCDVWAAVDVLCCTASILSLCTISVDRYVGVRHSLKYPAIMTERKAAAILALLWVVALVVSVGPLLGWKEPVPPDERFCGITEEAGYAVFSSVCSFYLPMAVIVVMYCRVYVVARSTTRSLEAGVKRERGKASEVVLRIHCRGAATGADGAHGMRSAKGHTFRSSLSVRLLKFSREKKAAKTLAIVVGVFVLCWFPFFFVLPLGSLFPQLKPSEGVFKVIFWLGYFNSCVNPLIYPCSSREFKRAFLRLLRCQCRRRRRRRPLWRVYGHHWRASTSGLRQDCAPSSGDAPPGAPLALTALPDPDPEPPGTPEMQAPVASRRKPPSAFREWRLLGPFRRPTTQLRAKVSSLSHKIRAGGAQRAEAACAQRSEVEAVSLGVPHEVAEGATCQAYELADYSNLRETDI
UniProt P08913, whole entry: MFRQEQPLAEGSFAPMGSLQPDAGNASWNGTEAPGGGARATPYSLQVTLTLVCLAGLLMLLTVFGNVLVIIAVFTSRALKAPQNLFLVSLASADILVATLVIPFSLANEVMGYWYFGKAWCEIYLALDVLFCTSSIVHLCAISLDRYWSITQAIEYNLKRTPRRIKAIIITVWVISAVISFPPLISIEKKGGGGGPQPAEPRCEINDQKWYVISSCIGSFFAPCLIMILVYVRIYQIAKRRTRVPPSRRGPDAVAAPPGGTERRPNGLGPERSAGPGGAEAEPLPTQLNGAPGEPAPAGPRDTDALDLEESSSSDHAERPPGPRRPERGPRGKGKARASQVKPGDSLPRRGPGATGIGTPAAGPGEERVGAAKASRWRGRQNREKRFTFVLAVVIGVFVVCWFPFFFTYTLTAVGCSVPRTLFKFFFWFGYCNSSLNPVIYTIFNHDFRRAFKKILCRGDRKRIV

Where two headings read alike, the source gives them in different places.

By Ki is commonly meant a dissociation constant, usually derived from enzyme kinetics or from competition with a known ligand. As to `COC(=O)CNC(=O)[C@@H]1[C@H]2C[C@H]3c4[nH]c5ccccc5c4CCN3C[C@@H]2CC[C@@H]1O`, the Ki at human α2A-AR (read-out: Ki α2A, CHO cells) is 0.0338 µM.

Take `O=C(NCCCNC(=O)C1C(O)CCC2CN3CCc4c([nH]c5ccccc45)C3CC21)OCc1ccccc1` (stereo not shown): the Ki is 0.0123 µM on human α2A-AR; 0.0123 µM at human α2A-AR (read-out: Ki α2A, CHO cells); 0.646 µM on human α1A-AR; 0.692 µM on human α1B-AR; 0.955 µM at human α1D-AR.

With `CC(C)(C)OC(=O)NCCCNC(=O)C1C(O)CCC2CN3CCc4c([nH]c5ccccc45)C3CC21` (stereo not shown), the Ki on human α2A-AR (read-out: Ki α2A, CHO cells) came to 0.0117 µM.

`COC(=O)CNC(=O)CNC(=O)[C@@H]1[C@H]2C[C@H]3c4[nH]c5ccccc5c4CCN3C[C@@H]2CC[C@@H]1O`: the Ki at human α2A-AR was found to be 0.0468 µM; at human α2A-AR (read-out: Ki α2A, CHO cells), 0.0467 µM.

For the compound `O=C(O)CCCNC(=O)C1C(O)CCC2CN3CCc4c([nH]c5ccccc45)C3CC21` (stereo not shown), the Ki on human α2A-AR (read-out: Ki α2A, CHO cells) worked out at 0.933 µM.

The values are drawn from US7470703B1 (priority 2004, dated 2008).
